Laboratory results from patent publication US12084485B2 (Intarcia Therapeutics, Inc., priority 2020, dated 2024).

The chains behind the UniProt entries cited, without tags or fusion partners. Residues count along the entry.
UniProt P43220, 24-463: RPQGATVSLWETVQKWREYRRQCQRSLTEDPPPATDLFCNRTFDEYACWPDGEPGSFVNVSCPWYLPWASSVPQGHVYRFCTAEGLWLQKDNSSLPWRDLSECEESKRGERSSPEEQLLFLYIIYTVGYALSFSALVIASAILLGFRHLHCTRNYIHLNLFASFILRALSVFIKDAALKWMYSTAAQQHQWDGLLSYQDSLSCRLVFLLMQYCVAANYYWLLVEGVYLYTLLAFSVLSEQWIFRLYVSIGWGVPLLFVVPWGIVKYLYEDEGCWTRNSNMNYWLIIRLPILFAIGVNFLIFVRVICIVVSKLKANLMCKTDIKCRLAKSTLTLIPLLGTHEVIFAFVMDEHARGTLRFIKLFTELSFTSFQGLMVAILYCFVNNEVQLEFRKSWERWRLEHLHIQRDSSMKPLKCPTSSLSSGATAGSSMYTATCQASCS
UniProt P32301, 22-463: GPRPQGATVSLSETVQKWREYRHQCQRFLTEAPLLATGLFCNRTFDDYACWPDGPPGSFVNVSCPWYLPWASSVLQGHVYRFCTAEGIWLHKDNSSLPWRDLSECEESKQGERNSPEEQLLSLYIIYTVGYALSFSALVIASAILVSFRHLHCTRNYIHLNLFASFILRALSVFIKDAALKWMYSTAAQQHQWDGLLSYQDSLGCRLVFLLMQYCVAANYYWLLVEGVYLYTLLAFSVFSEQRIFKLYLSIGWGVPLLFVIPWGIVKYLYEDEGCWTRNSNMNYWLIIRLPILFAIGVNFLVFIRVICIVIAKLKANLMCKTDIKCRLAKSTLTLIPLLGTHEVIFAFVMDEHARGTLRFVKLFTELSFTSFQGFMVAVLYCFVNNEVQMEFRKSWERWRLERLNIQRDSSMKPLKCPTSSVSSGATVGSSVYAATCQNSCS

Columns and labels:
[1] = Stability in DMSO or DI water at 37° C. (purity by LC/MS and HPLC); format: physicochemical; conditions: TFA salt unless indicated otherwise
[2] = Solubility in saline or DI water at room temperature (visual inspection); format: physicochemical; conditions: as TFA salt unless indicated otherwise
[3] = molecular target: T1, human GLP-1R (Homo sapiens, UniProt P43220); experiment: cAMP accumulation assay, CHO-K1 cells expressing human GLP-1R; format: cell-based
T1 construct: expressed in transfected cells

[4] = molecular target: T2, rat GLP-1R (Rattus norvegicus, UniProt P32301); experiment: cAMP accumulation assay, CHO-K1 cells expressing rat GLP-1R; format: cell-based
T2 construct: a cDNA fragment encoding the full-length open reading frame of the rat GLP-1R; expressed in transfected cells; host or cells: CHO-K1 (transient, Lipofectamine 2000)

[5] = Intravenous infusion pharmacokinetics in Sprague-Dawley rats; conditions: rat, in vivo, 1-hour IV infusion, 0.033 mg/kg, male Sprague-Dawley rats
[6] = cited from earlier work
[7] = read-out: Solubility (mg/mL) in DI water
[8] = read-out: Solubility (mg/mL) in saline

SMILES	Stability @ 37° C. (% purity) Day 14 ([1]; solute DI H2O) [%]	Stability @ RT (% purity) Day 0 ([1]; solute DI H2O, 1 mg/ml) [%]	Stability @ RT (% purity) Day 14 ([1]; solute DI H2O) [%]	Stability @ RT (% purity) Day 28 ([1]; solute DI H2O) [%]	Stability @ 37° C. (% purity) Day 14 ([1]; solute Saline) [%]	Stability @ RT (% purity) Day 0 ([1]; solute Saline) [%]	Stability @ RT (% purity) Day 14 ([1]; solute Saline) [%]	Stability @ RT (% purity) Day 28 ([1]; solute Saline) [%]	solubility [2, 7] [mg/mL]	solubility [2, 8] [mg/mL]	EC50 [3] [pM]	EC50 [4] [pM]	further results
CC[C@H](C)[C@H](NC(=O)[C@H](Cc1ccccc1)NC(=O)[C@H](CC(C)C)NC(=O)[C@H](CCCNC(=N)N)NC(=O)[C@H](C)NC(=O)[C@H](C)NC(=O)[C@H](CCC(=O)O)NC(=O)[C@H](CCCCNC(=O)CC[C@H](NC(=O)CC[C@H](NC(=O)COCCOCCNC(=O)CCCCCCCCCCCCCCCCCCC(=O)O)C(=O)O)C(=O)O)NC(=O)[C@H](CCC(=O)O)NC(=O)[C@H](Cc1ccc(O)cc1)NC(=O)[C@H](CCC(N)=O)NC(=O)[C@H](CCCCN)NC(=O)[C@H](CO)NC(=O)[C@@H](NC(=O)[C@H](CC(=O)O)NC(=O)[C@H](CC(N)=O)NC(=O)[C@@H](NC(=O)[C@H](Cc1ccccc1)NC(=O)[C@@H](NC(=O)CNC(=O)[C@H](CCC(=O)O)NC(=O)C(C)(C)NC(=O)[C@@H](N)Cc1c[nH]cn1)[C@@H](C)O)[C@@H](C)O)C(C)C)C(=O)N[C@@H](CO)C(=O)N[C@@H](Cc1c[nH]c2ccccc12)C(=O)N[C@@H](CC(C)C)C(=O)N[C@@H](CCCCN)C(=O)N[C@@H](CC(N)=O)C(=O)NCC(=O)NCC(=O)N1CCC[C@H]1C(=O)N[C@@H](CO)C(=O)N[C@@H](CO)C(=O)NCC(=O)N[C@@H](C)C(=O)N1CCC[C@H]1C(=O)N1CCC[C@H]1C(=O)N1CCC[C@H]1C(=O)N[C@@H](CO)C(N)=O [Compound A88]	97.5	96.9	94.6	93	95	97.2	93.6	92.1	> 81	> 107	1	2.51	–
CC[C@H](C)[C@H](NC(=O)[C@H](Cc1ccccc1)NC(=O)[C@H](CC(C)C)NC(=O)[C@H](CCCNC(=N)N)NC(=O)[C@H](C)NC(=O)[C@H](C)NC(=O)[C@H](CCC(=O)O)NC(=O)[C@H](CCCCNC(=O)CC[C@H](NC(=O)CC[C@H](NC(=O)COCCOCCNC(=O)CCCCCCCCCCCCCCCCCCC(=O)O)C(=O)O)C(=O)O)NC(=O)[C@H](CCC(=O)O)NC(=O)[C@H](Cc1ccc(O)cc1)NC(=O)[C@H](CCC(N)=O)NC(=O)[C@H](CCCCN)NC(=O)[C@H](CO)NC(=O)[C@@H](NC(=O)[C@H](CC(=O)O)NC(=O)[C@H](CC(N)=O)NC(=O)[C@@H](NC(=O)[C@H](Cc1ccccc1)NC(=O)[C@@H](NC(=O)CNC(=O)[C@H](CCC(=O)O)NC(=O)C(C)(C)NC(=O)[C@@H](N)Cc1c[nH]cn1)[C@@H](C)O)[C@@H](C)O)[C@@H](C)CC)C(=O)N[C@@H](CO)C(=O)N[C@@H](Cc1c[nH]c2ccccc12)C(=O)N[C@@H](CC(C)C)C(=O)N[C@@H](CCCCN)C(=O)N[C@@H](CC(N)=O)C(=O)NCC(=O)NCC(=O)N1CCC[C@H]1C(=O)N[C@@H](CO)C(=O)N[C@@H](CO)C(=O)NCC(=O)N[C@@H](C)C(=O)N1CCC[C@H]1C(=O)N1CCC[C@H]1C(=O)N1CCC[C@H]1C(=O)N[C@@H](CO)C(N)=O [Compound A89]	–	–	–	–	–	–	–	–	–	–	–	2	clearance [5]: 0.102 mL/min/kg; half-life ([5]; read-out: T1/2 (IV) (converted)): 13.5 h
CC[C@H](C)[C@H](NC(=O)[C@@H]1CCCN1C(=O)CNC(=O)[C@H](Cc1ccccc1)NC(=O)[C@H](CC(N)=O)NC(=O)[C@H](CC(N)=O)NC(=O)[C@H](CO)NC(=O)[C@H](CO)NC(=O)[C@H](Cc1c[nH]cn1)NC(=O)[C@@H](NC(=O)[C@H](CC(C)C)NC(=O)[C@H](Cc1ccccc1)NC(=O)[C@H](CC(N)=O)NC(=O)[C@H](C)NC(=O)[C@H](CC(C)C)NC(=O)[C@H](CCCNC(=N)N)NC(=O)[C@H](CCC(N)=O)NC(=O)[C@@H](NC(=O)[C@H](C)NC(=O)[C@@H]1CSSC[C@H](NC(=O)[C@@H](N)CCCCN)C(=O)N[C@@H](CC(N)=O)C(=O)N[C@@H]([C@@H](C)O)C(=O)N[C@@H](C)C(=O)N[C@@H]([C@@H](C)O)C(=O)N1)[C@@H](C)O)C(C)C)C(=O)N[C@@H](CC(C)C)C(=O)N1CCC[C@H]1C(=O)N1CCC[C@H]1C(=O)N[C@H](C(=O)N[C@@H](CC(N)=O)C(=O)N[C@H](C(=O)NCC(=O)N[C@@H](CO)C(=O)N[C@@H](CC(N)=O)C(=O)N[C@H](C(=O)N[C@@H](Cc1ccc(O)cc1)C(N)=O)[C@@H](C)O)C(C)C)[C@@H](C)O [pramlintide]	–	–	–	–	–	–	–	–	–	–	–	–	half-life in humans [6]: approximately 48 minutes
CC[C@H](C)[C@H](NC(=O)[C@H](Cc1ccccc1)NC(=O)[C@H](CC(C)C)NC(=O)[C@H](CCCNC(=N)N)NC(=O)[C@H](C)NC(=O)[C@H](C)NC(=O)[C@H](CCC(=O)O)NC(=O)[C@H](CCCCNC(=O)CC[C@H](NC(=O)CC[C@H](NC(=O)COCCOCCNC(=O)CCCCCCCCCCCCCCCCCCC(=O)O)C(=O)O)C(=O)O)NC(=O)[C@H](CCC(=O)O)NC(=O)[C@H](Cc1ccc(O)cc1)NC(=O)[C@H](CCC(N)=O)NC(=O)[C@H](CCCCN)NC(=O)[C@H](CO)NC(=O)[C@@H](NC(=O)[C@H](CC(=O)O)NC(=O)[C@H](CO)NC(=O)[C@@H](NC(=O)[C@H](Cc1ccccc1)NC(=O)[C@@H](NC(=O)CNC(=O)[C@H](CCC(=O)O)NC(=O)C(C)(C)NC(=O)[C@@H](N)Cc1c[nH]cn1)[C@@H](C)O)[C@@H](C)O)[C@@H](C)CC)C(=O)N[C@@H](CO)C(=O)N[C@@H](Cc1c[nH]c2ccccc12)C(=O)N[C@@H](CC(C)C)C(=O)N[C@@H](CCCCN)C(=O)N[C@@H](CC(N)=O)C(=O)NCC(=O)NCC(=O)N1CCC[C@H]1C(=O)N[C@@H](CO)C(=O)N[C@@H](CO)C(=O)NCC(=O)N[C@@H](C)C(=O)N1CCC[C@H]1C(=O)N1CCC[C@H]1C(=O)N1CCC[C@H]1C(=O)N[C@@H](CO)C(N)=O [Compound A86]	–	–	–	–	–	–	–	–	–	–	–	2	–
CC[C@H](C)[C@H](NC(=O)[C@H](Cc1ccccc1)NC(=O)[C@H](CC(C)C)NC(=O)[C@H](CCCNC(=N)N)NC(=O)[C@H](C)NC(=O)[C@H](C)NC(=O)[C@H](CCC(=O)O)NC(=O)[C@H](CCCCNC(=O)CC[C@H](NC(=O)CC[C@H](NC(=O)COCCOCCNC(=O)CCCCCCCCCCCCCCCCCCC(=O)O)C(=O)O)C(=O)O)NC(=O)[C@H](CCC(=O)O)NC(=O)[C@H](Cc1ccc(O)cc1)NC(=O)[C@H](CCC(N)=O)NC(=O)[C@H](CCCCN)NC(=O)[C@H](CO)NC(=O)[C@H](CC(C)C)NC(=O)[C@H](CC(=O)O)NC(=O)[C@H](CC(N)=O)NC(=O)[C@@H](NC(=O)[C@H](Cc1ccccc1)NC(=O)[C@@H](NC(=O)CNC(=O)[C@H](CCC(=O)O)NC(=O)C(C)(C)NC(=O)[C@@H](N)Cc1c[nH]cn1)[C@@H](C)O)[C@@H](C)O)C(=O)N[C@@H](CO)C(=O)N[C@@H](Cc1c[nH]c2ccccc12)C(=O)N[C@@H](CC(C)C)C(=O)N[C@@H](CCCCN)C(=O)N[C@@H](CC(N)=O)C(=O)NCC(=O)NCC(=O)N1CCC[C@H]1C(=O)N[C@@H](CO)C(=O)N[C@@H](CO)C(=O)NCC(=O)N[C@@H](C)C(=O)N1CCC[C@H]1C(=O)N1CCC[C@H]1C(=O)N1CCC[C@H]1C(=O)N[C@@H](CO)C(N)=O [Compound A87]	91	96.6	94.4	90.1	83.9	97.5	91.6	89.6	> 88	> 104	1	2.51	–
CC[C@H](C)[C@H](NC(=O)[C@H](Cc1ccccc1)NC(=O)[C@H](CC(C)C)NC(=O)[C@H](CCCNC(=N)N)NC(=O)[C@H](C)NC(=O)[C@H](C)NC(=O)[C@H](CCC(=O)O)NC(=O)[C@H](CCCCNC(=O)CC[C@H](NC(=O)CC[C@H](NC(=O)COCCOCCNC(=O)CCCCCCCCCCCCCCCCCCC(=O)O)C(=O)O)C(=O)O)NC(=O)[C@H](CCC(=O)O)NC(=O)[C@H](Cc1ccc(O)cc1)NC(=O)[C@H](CCC(N)=O)NC(=O)[C@H](CCCCN)NC(=O)[C@H](CO)NC(=O)[C@@H](NC(=O)[C@H](CC(=O)O)NC(=O)[C@H](CO)NC(=O)[C@@H](NC(=O)[C@H](Cc1ccccc1)NC(=O)[C@@H](NC(=O)CNC(=O)[C@H](CCC(=O)O)NC(=O)C(C)(C)NC(=O)[C@@H](N)Cc1c[nH]cn1)[C@@H](C)O)[C@@H](C)O)C(C)C)C(=O)N[C@@H](CO)C(=O)N[C@@H](Cc1c[nH]c2ccccc12)C(=O)N[C@@H](CC(C)C)C(=O)N[C@@H](CCCCN)C(=O)N[C@@H](CC(N)=O)C(=O)NCC(=O)NCC(=O)N1CCC[C@H]1C(=O)N[C@@H](CO)C(=O)N[C@@H](CO)C(=O)NCC(=O)N[C@@H](C)C(=O)N1CCC[C@H]1C(=O)N1CCC[C@H]1C(=O)N1CCC[C@H]1C(=O)N[C@@H](CO)C(N)=O [Compound A85]	–	–	–	–	–	–	–	–	–	–	–	1.58	–

Read-outs that look alike come from different tables or passages of the source.
